The conditions of this data set: phosphate buffer containing 6 M guanidinium-hydrochloride.

On to “C (Acm)YAFKYARHANVGRNAFELFLGCOSBn [Compound 2]”, for which the solubility entry is recorded as “poor solubility”.

The values are drawn from patent publication US8980311B2, “Liposome-mediated ligation” (University of Georgia Research Foundation, Inc., priority 2006, dated 2015).
